# According to PubChem BioAssay AID602313 (National Center for Advancing Translational Sciences (NCATS), 2012):
# Only a part is listed here, and it is no random draw. Activity calls are given as the source filed them. The call rests on the fitted dose curve; in most records, active means well fitted inhibition curve with a large enough effect; inconclusive means small, poorly fitted or top-dose-only effect; inactive means flat fitted curve, though single readings scatter.
# Experiment: qHTS for Inhibitors of Vif-A3F Interactions: qHTS; further: % of control where 0% means no effect; nearly all actives have a fitted effect of over 65% in size
# Settings: HeLa A3F-eYFP + Vif (tagged APOBEC3F with the HIV-1 protein that degrades it), YFP fluorescence increase; at 46.1 µM (top of the series)
# Excerpt: The recent discovery and characterization of host restriction factors, which provide a potent defense to invading retroviruses, has provided new targets for antiviral drug development. APOBEC3G (A3G) and APOBEC3F (A3F) are potent cytidine deaminases that block HIV-1 replication; HIV-1 expresses the Vif protein, which counteracts A3G and A3F by binding to them and inducing their proteasomal degradation. The Vif-A3G and Vif-A3F interactions provide two potential targets for development of small molecules which can interfere with the ability of Vif to degrade A3G or A3F. […] To identify inhibitors that can interfere with Vif mediated degradation of A3G and A3F, we have developed Hela cell lines that stably express A3G or A3F tagged with eYFP at the C-terminal end (A3G-eYFP or A3F-eYFP, respectively) and Vif. In the absence of an inhibitor, Vif induces degradation of A3G-eYFP and A3F-eYFP, and the cells are not fluorescent. In the presence of an inhibitor, it is expected that Vif will be unable to degrade A3G-eYFP and/or A3F-eYFP, resulting in an increase in yellow fluorescence. In this assays Vif A3F was screened against the Molecular Library Small Molecule Repository (MLSMR). NIH Chemical Genomics Center [NCGC] NIH Molecular Libraries Probe Centers Network [MLPCN] MLPCN Grant: MH093245 Assay Submitter (PI): Vinay Pathak, National Cancer Institute
# 5 uL of 700 cells/well of A3F-YFP cells are dispensed into black, clear bottom plates. The plates are incubated overnight at 37 deg C. 23 nL of compounds are added by pintool. The plates are incubated overnight at 37 deg C and then read on the TTP Acumen (Ex 488/ Em 500-530).
row,SMILES,"activity, negative = active"
1,O=P1(N(CCCl)CCCl)OCCC2CCCCN21 (stereo not drawn),inactive: 11.4%
2,CCNC(=S)/N=C(\N)N[N+](=O)[O-],inactive: -0.125%
3,O=C(NC1CCS(=O)(=O)C1)NP(=S)(Oc1ccccc1)Oc1ccccc1 (stereo not drawn),inactive: 6.36%
4,c1ccc(-c2nn[nH]n2)c(-c2nn[nH]n2)c1,inactive: -2.22%
5,Cc1ccc(NP(=O)(Oc2cccc(C)c2)Oc2cccc(C)c2)nc1,inactive: 1.23%
6,Cc1ccccc1OP(=O)(Nc1ccccn1)Oc1ccccc1C,inactive: 5.39%
7,CC(NC(=O)COC(=O)C(O)(c1ccccc1)c1ccccc1)c1ccccc1 (stereo not drawn),inactive: 4.25%
8,CN(C)C(=O)Oc1noc2ccccc12,inactive: -2.24%
9,O=c1c2cc([N+](=O)[O-])ccc2[nH]c2c([N+](=O)[O-])cc([N+](=O)[O-])cc12,inactive: 0.298%
10,COC(=O)c1cc2c(s1)N=C(c1ccccc1)N(C)P2(=O)N1CCOCC1 (stereo not drawn),inactive: 6.8%
11,Cc1ccc(OP(=O)(Nc2ccccn2)Oc2ccc(C)cc2)cc1,inactive: 6.19%
12,CC(=O)NC(SC(=S)N(CC(C)C)CC(C)C)C(Cl)(Cl)Cl (stereo not drawn),inactive: -0.0209%
13,O=C(OC1CN2CCC1CC2)c1ccccc1 (stereo not drawn),inactive: 9.67%
14,CCC(=O)N1C2C3N(C(=O)CC)C1C1N(C(=O)CC)C(C(N1C(=O)CC)N3C(=O)CC)N2C(=O)CC,inactive: -3.57%
15,CCc1cc(O)c([N+](=O)[O-])c(C)c1[N+](=O)[O-],inactive: 4.11%
16,CC(C)(C)C(=O)NC(Sc1ccccc1)C(Cl)(Cl)Cl (stereo not drawn),inactive: 4.75%
17,O=P1(Nc2nc3ccc(Cl)cc3s2)COc2ccccc2O1 (stereo not drawn),inactive: 3.93%
18,CCOc1ccc(C2=NCC(CBr)S2)cc1 (stereo not drawn),inactive: -6.11%
19,CC(=O)Nc1ccc([As](=O)(O)O)c(O)c1,inactive: 0.385%
20,CC(=O)Nc1ccc(Oc2c([N+](=O)[O-])cc([N+](=O)[O-])cc2[N+](=O)[O-])cc1,inactive: 2.3%
21,N#C/C(=C\c1ccc(N(CCBr)CCBr)cc1)C(N)=O,inactive: 8.03%
22,CC(=O)c1ccc(N2CC2c2ccncc2)cc1 (stereo not drawn),inactive: 4.54%
23,COC(=O)C1(C)COP(=O)(NCc2ccccc2)OC1 (stereo not drawn),inactive: -19.7%

row,SMILES,"activity, negative = active"
1,Cc1ccccc1CN(C)C(=O)COC(=O)C(O)(c1ccccc1)c1ccccc1,inactive: 1.4%
2,C[C@@H]1C=CCP(=O)(Oc2ccccc2)O1 (stereo partly drawn),inactive: -5.52%
3,C[C@H]1OP(=O)(Oc2ccccc2)C[C@@H]2O[C@@H]21 (stereo partly drawn),inactive: -9.43%
4,COc1ccccc1OP(=O)(Nc1ccc(C)cn1)Oc1ccccc1OC,inactive: -11.7%
5,Cc1ccc(OP(=O)(Nc2nccs2)Oc2ccc(C)cc2)cc1,inactive: -12.4%
6,Clc1ccc(Cl)c(NC2=NCC(CBr)S2)c1 (stereo not drawn),inactive: -1.22%
7,CN1CCCC(OC(=O)C(c2ccccc2)c2ccccc2)C1 (stereo not drawn),inactive: -3.15%
8,NC(=O)c1cc([N+](=O)[O-])cc([N+](=O)[O-])c1N,inactive: -3.43%
9,CN(C(=O)Cc1ccc(Cl)c(Cl)c1)[C@H]1CCCC[C@H]1N1CCCC1,inactive: 8.7%
10,Cc1ccc(N/C(=N/P(=O)(N2CCOCC2)N2CCOCC2)N2CCOCC2)cc1,inactive: 7.43%
11,CC(C)CC(=O)NC(Sc1ccc(Cl)cc1)C(Cl)(Cl)Cl (stereo not drawn),inactive: -1.4%
12,Nc1cc(N)c2nonc2c1[N+](=O)[O-],inactive: -0.806%
13,Oc1ccccc1CNc1ccccn1,inactive: -0.395%
14,O=C(NC(Sc1ccncn1)C(Cl)(Cl)Cl)c1ccccc1 (stereo not drawn),inactive: 2.61%
15,CCOP(=O)(Nc1ccccc1)OCC,inactive: 1.88%
16,Cc1cc(SC(NC(=O)c2ccc(F)cc2)C(Cl)(Cl)Cl)ncn1 (stereo not drawn),inactive: -2.38%
17,Cc1ccc(NP(=O)(Oc2ccccc2F)Oc2ccccc2F)nc1,inactive: 2.74%
18,CN(C(=O)Cc1ccc(Cl)c(Cl)c1)[C@H]1CCCC[C@@H]1N1CCCC1,inactive: 2.14%
19,O=C(O)c1ccccc1[As](=O)(O)O,inactive: 11.7%
20,CC(=O)Nc1ccc([As](=O)(O)O)cc1,inactive: 5.45%
21,CCCC1OP(N)(=O)OCC1CC (stereo not drawn),inactive: -11.7%
22,CN(C)P(=O)(N(C)C)n1c(Nc2ccccc2)nnc1-c1ccccc1,inactive: -1.05%
23,O=P(Nc1nc2ccc(Cl)cc2s1)(c1ccccc1)c1ccccc1,inactive: 5.22%

row,SMILES,"activity, negative = active"
1,CCN(N=Nc1nonc1N)c1nonc1N,inactive: 5.8%
2,Nc1cccc2ccc([As](=O)(O)O)cc12,inactive: -3.65%
3,O=C(Nc1cc([As](=O)(O)O)ccc1O)c1ccccc1,inactive: -3.04%
4,O=P1(N(CCCl)CCCl)OCCCS1 (stereo not drawn),inactive: -11.9%
5,O=[N+]([O-])c1cccc(NC2=NCC(CBr)S2)c1 (stereo not drawn),inactive: -0.103%
6,COC(=O)C1(C)COP(=O)(Nc2ccccc2)OC1 (stereo not drawn),inactive: 2.8%
7,O=C(O)CNc1ccc([As](=O)(O)O)cc1,inactive: -6.44%
8,CC(C)(C)C(=O)NC(Sc1ccncn1)C(Cl)(Cl)Cl (stereo not drawn),inactive: 0.821%
9,O=[N+]([O-])c1ncn(CCn2ncnc2[N+](=O)[O-])n1,inactive: 2.09%
10,O=[N+]([O-])c1cccc2n[nH]nc12,inactive: -5.02%
11,CC(=O)N1C2C3N(C(C)=O)C1C1N(C(C)=O)C(C(N1C(C)=O)N3C(C)=O)N2C(C)=O,inactive: -9.18%
12,Cc1ccc(NP(=O)(Oc2ccccc2)Oc2ccccc2)nc1,inactive: 9.24%
13,CCc1nc2c(n1)c1c(non1O)c1c2no[n+]1[O-],inactive: -1.99%
14,COc1ccc(C2=NCC(CBr)S2)cc1 (stereo not drawn),inactive: -18.4%
15,CC(C)=N/N=C(\N)N[N+](=O)[O-],inactive: -5.09%
16,CC(C)c1nc(Nc2ccccc2)n(P(=O)(N(C)C)N(C)C)n1,inactive: 4.71%
17,CN(C)C(=O)OCCc1n(C)cc[n+]1C,inactive: 0.942%
18,c1cc(-c2nn[nH]n2)ccc1-c1nn[nH]n1,inactive: 2.55%
19,CC1CCN(C(=O)Oc2c(Cl)cc(Cl)c3cccnc23)CC1,inactive: -17.7%
20,Nc1ccc([As](=O)(O)c2ccc(N)cc2)cc1,inactive: 5.25%
21,C[N+]1=C2C=CC=CC=C2SC12C([N+](=O)[O-])=CC([N+](=O)[O-])=C[C-]2[N+](=O)[O-] (stereo not drawn),inactive: 10.7%
22,CCN(/C(=N/P(=O)(N1CCOCC1)N1CCOCC1)N1CCOCC1)c1ccc(OC)cc1,inactive: -5.61%
